Earlier results on one compound are cited in US5658939A, “Methionine sulfone and S-substituted cysteine sulfone derivatives as enzyme inhibitors” (Corvas International Inc., priority 1995, dated 1997).

A word on the Ki: it is a dissociation constant, usually derived from enzyme kinetics or from competition with a known ligand.

SMILES strings stand for the structures.

The target of the data set is human alphathrombin. The settings on record: Table 4, literature values (footnotes c and d); cited from earlier work.

For `CC1CNc2c(cccc2S(=O)(=O)N[C@@H](CCCNC(=N)N)C(=O)N2CC[C@@H](C)C[C@@H]2C(=O)O)C1` (stereo partly drawn) [Argatroban, 2R,4R-4-methyl-1-[N-2-(3-methyl-1,2,3,4-tetrahydro-8-quinolinesulfonyl)-L-argininal]-2-piperdinecarboxylic acid, reference compound], the Ki was 19 nM.
